Reference: patent US10828436B2, “Administering the noble gas argon during cardiopulmonary resuscitation” (Vanderbilt University, priority 2016, dated 2020)
Some compounds may have been tested in ways that are not shown here.

Test system: porcine model of prolonged untreated cardiac arrest
Test: Porcine model of 15 min untreated VF, sodium nitroprusside enhanced CPR ([…])
Conditions: after 15 min of untreated cardiac arrest

## Sodium Nitroprusside
  24-hr survival: more than 90%
